This note sets out measurements from patent publication US20040142317A1, “Use of amino acid transporter atbo,+ as a delivery system for drugs and prodrugs” (priority 2003, published 2004).

In general, Ki refers to the equilibrium dissociation constant of an inhibitor or competing ligand from its target. A lower Ki goes with higher affinity.

The target of the test is T1, mb^0,+ AT rBAT complex (Mus musculus, UniProt Q9QXA6).
T1 sequence (Q9QXA6 1-487): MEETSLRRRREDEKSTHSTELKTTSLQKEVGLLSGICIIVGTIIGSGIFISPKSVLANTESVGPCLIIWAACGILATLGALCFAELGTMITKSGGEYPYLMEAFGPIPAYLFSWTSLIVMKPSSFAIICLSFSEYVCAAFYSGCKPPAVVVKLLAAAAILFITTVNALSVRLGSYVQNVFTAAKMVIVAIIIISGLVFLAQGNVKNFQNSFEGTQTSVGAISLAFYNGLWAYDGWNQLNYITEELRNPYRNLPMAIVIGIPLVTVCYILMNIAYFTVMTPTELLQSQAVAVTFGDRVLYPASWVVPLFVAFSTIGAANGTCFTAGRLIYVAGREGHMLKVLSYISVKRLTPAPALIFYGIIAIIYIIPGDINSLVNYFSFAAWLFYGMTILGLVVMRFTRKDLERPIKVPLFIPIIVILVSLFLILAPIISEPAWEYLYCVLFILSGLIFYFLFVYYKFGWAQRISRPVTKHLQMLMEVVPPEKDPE
The test is described as follows: cell-based.
The molecule `C[C@H](N)C(=O)O` [Alanine] had an inhibition constant Ki of 804 ± 142 µM.
Next, `N[C@@H](Cc1ccccc1)C(=O)O` [Phenylalanine]: 586 ± 215 µM; `N[C@H](C(=O)O)c1ccccc1` [Phenylglycine, L-phenylglycine]: 283 ± 84.4 µM.
